In PubChem BioAssay AID504454 (NMMLSC, 2011):
The list shows a part of the results, in another mix than the full data. Some tests of the compounds listed are not included; inactive here does not mean inactive elsewhere. Calls of active or inactive are those of the source.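 The calls were made as follows: active = response above a set limit, near 3 SD of response in nonfluorescent compounds (cut at about 42% in these data); inactive = the rest.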

Chains of the proteins cited; added tags and fusions are not shown.
UniProt P07550, whole entry: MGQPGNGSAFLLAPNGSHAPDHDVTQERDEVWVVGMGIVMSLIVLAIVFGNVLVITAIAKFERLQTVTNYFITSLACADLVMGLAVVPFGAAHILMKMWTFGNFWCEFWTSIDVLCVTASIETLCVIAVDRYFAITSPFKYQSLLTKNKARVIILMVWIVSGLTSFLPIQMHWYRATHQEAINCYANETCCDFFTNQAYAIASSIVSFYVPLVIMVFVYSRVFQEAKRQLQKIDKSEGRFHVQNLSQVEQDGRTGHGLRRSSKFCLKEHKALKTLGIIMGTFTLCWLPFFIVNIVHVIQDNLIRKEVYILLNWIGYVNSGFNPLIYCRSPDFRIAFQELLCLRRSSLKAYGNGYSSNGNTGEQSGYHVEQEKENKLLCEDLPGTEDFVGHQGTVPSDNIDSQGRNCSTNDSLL

The compounds below were run against Beta-2 adrenergic receptor (Homo sapiens) (UniProt P07550) (assay: agonist-induced loss of surface beta2AR – cell-based, FAP fluorogen, flow cytometry, primary screen (AID 504454)). Conditions: Am2.2-beta2AR cells, FAP receptor internalization, active compounds read high, concentration not given here.

For `COc1ccc(Br)c(C(=O)NCC2(N3CCCCC3)CCCCC2)c1`, which response is on record?
Its response is inactive: 6.6%.

With `CN(C)c1cccc(C(=O)NCC2(N(C)C)CCCCC2)c1` as the compound, how does the response read?
Its response is inactive: 7.01%.

Which response does the source give for `O=C(OCCN1CCCC1)C(O)(c1ccccc1)c1ccccc1` here?
The response was inactive: -2.39%.

How did the response turn out when `CC(C)Oc1ccc(C(=O)NCC2(N(C)C)CCCCC2)cc1` was run?
Its response is inactive: -2.36%.

How did the response turn out when `O=C(OC1CN2CCC1CC2)C(CO)(c1ccccc1)c1ccccc1` (stereo not given) was run?
Its response is inactive: -0.98%.

How did the response turn out when `COc1ccc(Cl)cc1C(=O)NCC1(N(C)C)CCCCC1` was run?
The response was inactive: -14.4%.

With `COc1cccc(C(=O)NCC2(N3CCCCC3)CCCCC2)c1` as the compound, how does the response read?
The response was inactive: 0.52%.

With `O=C(NCC1(N2CCCCC2)CCCCC1)c1cccc(Cl)c1` as the compound, how does the response read?
Its response is inactive: 1.77%.

Which response does the source give for `CN(C)C1(CNC(=O)c2ccc(Br)cc2)CCCCC1` here?
Its response is inactive: -2.37%.

`COc1cc(C(=O)NCC2(N(C)C)CCCCC2)c([N+](=O)[O-])cc1OC` was tested. Which response did it give?
Its response is inactive: -3.31%.

With `O=C(NCC1(N2CCCCC2)CCCCC1)c1cc(F)c(F)cc1Cl` as the compound, how does the response read?
Its response is inactive: -3.58%.

Which response does the source give for `C=CCN1CCN(CCOC(=O)C(O)(c2ccccc2)c2ccccc2)CC1` here?
Its response is inactive: 1.11%.

`O=C(NCC1(N2CCCCC2)CCCCC1)c1cccc(Br)c1` was tested. Which response did it give?
Its response is inactive: 5.52%.

For `Cc1cc(C(=O)NCC2(N3CCCCC3)CCCCC2)ccc1[N+](=O)[O-]`, which response is on record?
The response was inactive: -1.28%.

Which response does the source give for `CCN1CCCC(OC(=O)C2(O)c3ccccc3C=Cc3ccccc32)C1` (stereo not given) here?
Its response is inactive: 3.06%.

With `COc1ccc(C(=O)NCC2(N(C)C)CCCCC2)cc1` as the compound, how does the response read?
The response was inactive: -8.11%.

Which response does the source give for `CN(C)C1CCCC1OC(=O)C(O)(c1ccccc1)c1ccccc1` (stereo not given) here?
Its response is inactive: -1%.

With `CN(C)c1ccc(C(=O)NCC2(N(C)C)CCCCC2)cc1` as the compound, how does the response read?
The response was inactive: 0.29%.

Which response does the source give for `Cc1ccccc1C(=O)NCC1(N2CCCCC2)CCCCC1` here?
The response was inactive: 0.39%.

Which response does the source give for `CC(C)N1C(=O)CC2(CCN(CCOC(=O)C(O)(c3ccccc3)c3ccccc3)CC2)C1=O` here?
Its response is inactive: 2.01%.

How did the response turn out when `COc1cc(SC)ccc1C(=O)NCC1(N(C)C)CCCCC1` was run?
Its response is inactive: -12.4%.

With `CCN(CC)CC(C)C(C)OC(=O)C(O)(c1ccccc1)c1ccccc1` (stereo not given) as the compound, how does the response read?
Its response is inactive: 0%.

`Cc1ccc(C(=O)NCC2(N3CCCCC3)CCCCC2)cc1` was tested. Which response did it give?
Its response is inactive: -13%.

How did the response turn out when `O=C(NCC1(N2CCCCC2)CCCCC1)c1cc([N+](=O)[O-])ccc1Cl` was run?
Its response is inactive: 3.26%.

For `CN1[C@@H]2CC[C@H]1CC(OC(=O)C(O)(c1ccccc1)c1ccccc1)C2` (stereo not given in full), which response is on record?
The response was inactive: -6.13%.
